Results reported in US20170007610A1, “NOVEL HETEROBICYCLIC COMPOUNDS AS KAPPA OPIOID AGONISTS” (priority 2014, published 2017).

Tested on: ICR mice
Assay: Assessment of CNS effects (spontaneous locomotion, sedation, catalepsy), threshold dose
Type: in vivo
Conditions: lowest dose which shows pharmacodynamic effect (locomotion, sedation, catalepsy), oral or i.v.
Procedure: All the animal experiments were carried out in ICR mice, bred in-house. Animals were housed in groups of 6 animals per cage, for a week, in order to habituate them to vivarium conditions (25±4° C., 60-65% relative humidity, 12:12 h light: dark cycle, with lights on at 7.30 am). All the animal experiments were carried out according to the internationally valid guidelines following approval by the ‘Zydus Research Center animal ethical committee’.
Assessment of CNS Effects of Test Compounds
Test compounds were dissolved in normal saline injected by oral or i.v., routes in ICR mice tail vein. […] The dose is scaled down or up if pharmacodynamic effect is present or absent respectively.

“N-((S)-2-((S)-3-hydroxypyrrolidin-1-yl)-1-phenylethyl)- N-methyl-2-((8-sulfonamido)-1,2,3,4-tetrahydroquinolin- 5-yloxy)acetamide [Compound 37]” was tested, and the “CNS TD” value was 60 mg/kg.
